## Ab-14 heavy chain CDR variants: yeast mating affinities

Target peptide (SARS-CoV-2 spike, HR2 region): PDVDLGDISGINAS

Parent scFv Ab-14: VH joined to VL by the linker GGGGSGGGGSGGGGS. Changes lie in the heavy chain CDRs alone.
VH: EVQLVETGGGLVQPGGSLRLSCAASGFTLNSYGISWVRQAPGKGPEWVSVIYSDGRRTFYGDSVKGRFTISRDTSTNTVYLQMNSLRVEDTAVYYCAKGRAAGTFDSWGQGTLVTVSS
VL: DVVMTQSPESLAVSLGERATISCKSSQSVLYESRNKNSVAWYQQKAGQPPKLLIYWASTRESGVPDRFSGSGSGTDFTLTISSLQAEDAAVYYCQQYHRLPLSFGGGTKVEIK

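AAYL49 was designed without a model: most single CDR substitutions and a random sample of double and triple ones. AlphaSeq pools MATa yeast showing the antibodies with MATalpha yeast showing the peptide. After mating in shaken culture at 30 °C for 16 h, diploids were selected and their barcode pairs sequenced. The ratio of observed to expected reads was calibrated, replicate by replicate, on BCL2-family standards whose Kd was known from biolayer interferometry. Mating was done three times.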

Variants are written as CDR1, CDR2 and CDR3 of the heavy chain (limits as in the source). Parent: GFTLNSYGIS, VIYSDGRRTFYGDSVK, GRAAGTFDS. All variants listed here change A102 of the VH, counted from its first residue. The Kd shown is the geometric mean over detected replicates; a lower Kd is a better binder. Where no diploid with the target was found in any replicate, the entry reads "nd": below detection, most likely a poor binder, though not proof of it. Parent in this assay: reference entry 4.4 nM, copy in this library 13 µM (one replicate of three). As a blank, each scFv also met three strains without target: over library AAYL49, 15% of these pairings were detected, typically at 11 µM and seldom below 680 nM. For each scFv, signals with the empty controls are counted beside the result.

With GFNLNSYGIS, VIYSDGRRTFYGDSVK, GFAIGTFDS the result was nd (0 of 3 replicates; controls 0 of 9).
With GFILNSDGIS, VIYSDGRRTFYGDSVK, GRAPGTFDS the result was nd (0 of 3 replicates; controls 2 of 9).
With GFTLNSYGIS, VIYSSGRRTFYGDSVK, GRAYGTFDS the result was nd (0 of 3 replicates; controls 0 of 9).
With GFTLNSYGIS, VIYSMGTRTFYGDSVK, GRATGTFDS the result was 1.3 µM (1 of 3 replicates; controls 0 of 9).
With GFTLNSYIIS, VIYSDGRHTFYGDSVK, GRAWGTFDS the result was 58 µM (3 of 3 replicates; controls 4 of 9).
With GFTLNSYGIS, VIYSDGRRTMYGDSHK, GRAVGTFDS the result was 3.0 µM (1 of 3 replicates; controls 5 of 9).
With GFTLNSYGIN, VIYSDGRRTFYGDSVK, GRANGTYDS the result was 4.9 µM (3 of 3 replicates; controls 4 of 9).
With GFTLNSYGIS, VIYSDGRRTFYGDSVK, GDAIGTFIS the result was 110 µM (2 of 3 replicates; controls 2 of 9).
With GFTLNSYGIS, VIYSDGRCTFDGDSVK, GRANGTFDS the result was 750 nM (1 of 3 replicates; controls 0 of 9).
With GFTLNSYGIS, VIYSDGRETFYGDSVK, GRAKGTFDP the result was nd (0 of 3 replicates; controls 0 of 9).
With GFTLNSYGIS, VIYSDGRRTFYGDSVK, GRAWGTFDS the result was 3.9 µM (1 of 3 replicates; controls 3 of 9).
With GFTLNSYGIS, VIYSDGRRTFYQDSTK, GRAHGTFDS the result was nd (0 of 3 replicates; controls 1 of 9).
With GFTLNSYGIS, VIYSDGRRTFYGDSVW, GRAWRTFDS the result was nd (0 of 3 replicates; controls 0 of 9).
With GFTLNSYGIS, VIYSWGRRTFYGDSVK, GWAIGTFDS the result was nd (0 of 3 replicates; controls 2 of 9).
With GFDLNSYGIS, VIYSDGRRTTYGDSVK, GRAYGTFDS the result was 82 nM (3 of 3 replicates; controls 0 of 9).
With GFNLNSYGIS, VIYSDGRRTFYGDSVK, GRKSGTFDS the result was 3.7 nM (3 of 3 replicates; controls 1 of 9).
With GFTLNSYGIS, VIYEDLRRTFYGDSVK, GRAQGTFDS the result was 15 µM (1 of 3 replicates; controls 2 of 9).
With GFTLNSEGIS, VIYSDGVRTFYGDSVK, GRACGTFDS the result was nd (0 of 3 replicates; controls 4 of 9).
With GFTLNSYGIS, VIYSDGRRTFIGDSVK, GNAYGTFDS the result was 3.4 µM (1 of 3 replicates; controls 1 of 9).
With GFTLNSYGIS, VIYSDGRRTFYGDSVK, GRAYGTFDD the result was 16 µM (1 of 3 replicates; controls 2 of 9).
With GFTLNSYMIS, VIYSDGRRTFYGDSVK, GRAILTFDS the result was nd (0 of 3 replicates; controls 0 of 9).
With GFTHNSQGIS, VIYSDGRRTFYGDSVK, GRAQGTFDS the result was nd (0 of 3 replicates; controls 0 of 9).
With GFTLNSYGKS, VIYSDGCRTFYGDSVK, GRAKGTFDS the result was 28 µM (3 of 3 replicates; controls 2 of 9).
With GFTLNSYPIS, VIYSDGRRTFYGDSVK, GEATGTFDS the result was nd (0 of 3 replicates; controls 0 of 9).
With GFTLNSYGIS, VIYSDGRRTFYGDSVK, GRASGTFDS the result was 15 nM (3 of 3 replicates; controls 1 of 9).
With GFTLNSYGIS, VIYSDGRRTYYGDSVK, GGAKGTFDS the result was nd (0 of 3 replicates; controls 0 of 9).
With GFCLNSYGIS, VIYSDGRHTFYGDSVK, GRAWGTFDS the result was nd (0 of 3 replicates; controls 0 of 9).
With GFTLNSYGIS, VIYSDGRRTFYGDSVK, GRSMGTVDS the result was 190 µM (1 of 3 replicates; controls 4 of 9).
With GFTLNSYGIS, VIYSDGRRTFYGDSVK, GRAQGLFDP the result was nd (0 of 3 replicates; controls 1 of 9).
With GFTLNSYGIS, VIYSDGRDTFYGDSVK, GRANGHFDS the result was nd (0 of 3 replicates; controls 1 of 9).
With GFTLNSYGID, VIYSDGRRTFYGDSVK, GWARGTFDS the result was 74 nM (3 of 3 replicates; controls 1 of 9).
With GFTLNSYGIS, VIYSDGRRTKYGKSVK, GRADGTFDS the result was 5.3 µM (1 of 3 replicates; controls 3 of 9).

For reference, 3 entries of the list once more:

With GFTLNSYGIS, VIYSDGRRTFYGDSVK, GRASGTFDS the result was 15 nM (3 of 3 replicates; controls 1 of 9).
With GFTLNSYGKS, VIYSDGCRTFYGDSVK, GRAKGTFDS the result was 28 µM (3 of 3 replicates; controls 2 of 9).
With GFTLNSYGIS, VIYSDGRDTFYGDSVK, GRANGHFDS the result was nd (0 of 3 replicates; controls 1 of 9).

Data: MIT Lincoln Laboratory AlphaSeq set, Engelhart et al. 2022, doi:10.1038/s41597-022-01779-4, as distributed in FLAb.